Assay results published in US6573282B1 (priority 1995, dated 2003).
Counter-ions that a name gives are not always drawn.

Key:
inflamed knee joint = details: rat, in vivo
FCA-induced hyperalgesia = details: i. pl.

| Molecule | blockade of the hyperalgesia produced by inflammation of the knee (inflamed knee joint) | compression evoked increase in BP (inflamed knee joint) | cuff-evoked increase in BP (inflamed knee joint) | effect upon resting blood pressure (inflamed knee joint) | reversal of IA effect by pretreatment with naloxone (inflamed knee joint) | FCA-Induced Inflammation % Increase Over Baseline (FCA-induced hyperalgesia) [%] | FCA-Induced Inflammation ED50 (FCA-induced hyperalgesia) [μg i. pl.] |
| --- | --- | --- | --- | --- | --- | --- | --- |
| D-ala^2D-leu^5-enkephalin [DADL] | failure | effectively blocked |  |  |  |  |  |
| CN1CC[C@]23c4c5ccc(O)c4O[C@H]2[C@@H](O)C=C[C@H]3[C@H]1C5.O=S(=O)(O)O [morphine, morphine sulfate] |  | effectively blocked | dose dependent blockage | no effect | similarly reversed |  |  |
| CN(C)C(=O)C(CCN1CCC(O)(c2ccc(Cl)cc2)CC1)(c1ccccc1)c1ccccc1 [Ioperamide] |  |  |  |  |  | 108 | 21 |
| CN(C)C(=O)C(CCN1CCC(O)(c2ccc(Cl)cc2)CC1)(c1ccccc1)c1ccccc1 [loperamide, 4-(p-chlorophenyl)-4-hydroxy-N-N-dimethyl-α,α-diphenyl-1-piperidinebutyramide hydrochloride] |  |  | dose dependent blockage | no effect | reversed |  |  |
| [D-Pen^2, D-Pen^5]enkephalin [DPDPE] | failure | effectively blocked |  |  |  |  |  |
